For this assay, the target named is T1, Recombinant human MMP-2 (Homo sapiens, UniProt P08253).
T1 construct: made in house
T1 sequence (P08253 110-660): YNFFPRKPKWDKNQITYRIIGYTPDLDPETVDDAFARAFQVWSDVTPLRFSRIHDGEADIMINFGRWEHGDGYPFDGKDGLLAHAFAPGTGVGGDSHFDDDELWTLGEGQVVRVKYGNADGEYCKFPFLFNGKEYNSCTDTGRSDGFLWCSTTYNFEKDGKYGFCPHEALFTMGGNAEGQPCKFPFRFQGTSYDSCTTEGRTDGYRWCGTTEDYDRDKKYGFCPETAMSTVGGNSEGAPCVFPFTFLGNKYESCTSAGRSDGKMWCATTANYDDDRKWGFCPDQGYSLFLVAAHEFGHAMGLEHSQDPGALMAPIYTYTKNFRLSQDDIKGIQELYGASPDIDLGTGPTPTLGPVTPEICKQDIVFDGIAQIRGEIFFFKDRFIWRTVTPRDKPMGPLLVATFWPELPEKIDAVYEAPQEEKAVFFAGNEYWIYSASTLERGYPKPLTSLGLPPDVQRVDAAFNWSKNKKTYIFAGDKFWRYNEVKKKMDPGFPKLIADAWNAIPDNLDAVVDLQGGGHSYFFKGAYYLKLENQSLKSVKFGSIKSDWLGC
Description: In vitro MMP inhibition, fluorogenic peptide substrate. The format is biochemical. The note with it: Inhibition Table A.

pIC50: −log10 of the molar value.

Consider `O=C(NO)c1ccccc1S(=O)(=O)N1CCC(Oc2ccc(C(F)(F)F)cc2)CC1` [Example 13, N-hydroxy-2-[[4-[4-(trifluoromethyl)phenoxy]-1-piperidinyl]sulfonyl]benzamide], for which the pIC50 was 8.89.

These data come from patent US6683078B2, “Use of sulfonyl aryl or heteroaryl hydroxamic acids and derivatives thereof as aggrecanase inhibitors” (priority 2001, dated 2004).
